{"source": "ChEMBL document CHEMBL3421611", "about": "“New quinolone- and 1,8-naphthyridine-3-carboxamides as selective CB2 receptor agonists with anticancer and immuno-modulatory activity” (Eur J Med Chem, 2015)", "species_on_record": "Homo sapiens", "test": "Selectivity index, ratio of Ki for recombinant human CB1 receptor to Ki for recombinant human CB2 receptor"}
{"smiles": "CCCCCn1c(=O)c(C(=O)NC2CCC(C)CC2)cc2ccccc21", "note": "(configuration not stated)", "values": [{"measurement": "Ratio Ki", "result": 147}]}
{"smiles": "CC1CCC(NC(=O)c2c(O)c3cccnc3n(Cc3ccc(F)cc3)c2=O)CC1", "note": "(configuration not stated)", "values": [{"measurement": "Ratio Ki", "result": 184}]}
